# In PubChem BioAssay AID485395 (ICCB-Longwood Screening Facility, Harvard Medical School, 2010):
# Only a part is listed here, and it is no random draw. Some tests of the compounds listed are not included; inactive here does not mean inactive elsewhere. Calls of active or inactive are those of the source. Cut-off read from the data, not from the text of the source: active = inhibition above about 25% (passing the limit was not always enough); inactive = the rest.
# Tested on: replicative DNA helicase (DnaC/DnaB), Staphylococcus aureus
# Assay: inhibitors of S. aureus replicative helicase, primary screen, biochemical, fluorescence unwinding readout (AID 485395);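 note: 0% = mean of negative control wells and 100% = mean of positive control wells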
# Conditions: purified S. aureus helicase, fluorescence unwinding assay; hits give high values; concentration not given here
row,SMILES,inhibition
1,COc1ccc(OC)c(C=C(C#N)C#N)c1,inactive: -112%
2,CN(C)c1ccc(C(=O)NCC2(N(C)C)CCCCC2)cc1,inactive: 7%
3,O=C(NCC1(N2CCOCC2)CCCCC1)c1cnc(Cl)c(Cl)c1,inactive: 6%
4,O=C(NCC1(N2CCCCC2)CCCCC1)c1ccc2c(c1)OCCO2,inactive: 7%
5,CN1C2CCC1CC(OC(=O)C(O)(c1ccccc1)c1ccccc1)C2 (stereo not drawn),inactive: -1%
6,O=C(OC1CN2CCC1CC2)C(CO)(c1ccccc1)c1ccccc1 (stereo not drawn),inactive: 7%
7,CN(C)C1(CNC(=O)c2ccncc2)CCCCC1,inactive: 9%
8,N#CC(C#N)=Cc1ccccc1,inactive: 8%
